Here are results for one sequence from ChEMBL document CHEMBL2010707, “In silico discovery and biophysical evaluation of novel 5-(2-hydroxybenzylidene) rhodanine inhibitors of DNA gyrase B” (Bioorg Med Chem, 2012).

One may read the MIC as the smallest concentration in the dilution series that meets the test's criterion for growth inhibition. A higher MIC goes with a need for much substance.

The test system of the assay is Staphylococcus aureus. The note with it: ATCC 29213.

Sequence GENTAMICIN yielded an MIC of 0.5 µg/mL.
